Source: article PMC8899614, “Triterpenoid Saponins From the Fruit of Acanthopanax senticosus (Rupr. & Maxim.) Harms” (Frontiers in Chemistry, 2022)

System: NO production in LPS-induced BV2 microglia
Test: NO production inhibition in LPS-induced BV2 microglia (Griess reaction)
Format: cell-based
Conditions: LPS 1 μg/ml, n = 3, x ± s, IC50 > 100 μM deemed inactive, read-out: Inhibitory effects on NO in LPS-induced BV-2 cells, IC50
Experimental: The anti-neuroinflammatory effect of compounds 1–29 was evaluated by LPS-induced BV2 microglia reported previously ([Luo et al., 2020]). The BV2 microglia cells were plated into a 96-well plate. After adding LPS (1 μg/ml) to each well for 12 h, it was treated with or without compounds of various concentrations (0, 100, 200, 300, 400, and 600 μM) for 12 h. The NO production in the supernatant was measured by the Griess reaction. The absorbance at 570 nm was measured using a microplate reader. The NO concentration and the inhibitory rate were calculated through a calibration curve. Quercetin was used as the positive control. Experiments were repeated three times.
Unfortunately, the results of the evaluation were not ideal.

| pIC50 | SMILES |
| --- | --- |
| < 4.00 | CC1OC(OC2C(OC3CCC4(C)C(CCC5(C)C4CC=C4C6CC(C)(C)CCC6(C(=O)OC6OC(CO)C(O)C(O)C6O)CCC45C)C3(C)C)OCC(O)C2O)C(O)C(O)C1O [Compound 26, oleanolic acid 3-O-α-L-rhamnopyranosyl(1→2)-α-L-arabinopyranosyl-28-O-β-D-glucopyranosyl ester] |
| < 4.00 | CC1(C)CCC2(C(=O)O)CCC3(C)C(=CCC4C5(C)CCC(OC6OCC(O)C(OC7OC(CO)C(O)C(O)C7O)C6O)C(C)(C)C5CCC43C)C2C1 [Compound 21, oleanolic acid 3-O-β-D-glucopyranosyl (1→3)-α-L-arabinopyranoside] |

pIC50: −log10 of the molar value.
